## AlphaSeq binding of Ab-91 heavy chain variants to a spike HR2 peptide

All variants were tested on one target, the spike HR2 peptide PDVDLGDISGINAS (SARS-CoV-2).

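The parent was found by panning a naive human phage display library on the peptide. In library AAYL51, one, two or three CDR residues were substituted; doubles and triples were drawn at random. The scFvs were displayed on barcoded MATa yeast, the peptide on MATalpha yeast. Binding brings cells together so that they mate, and sequencing counts the barcode pairs among the diploids. A regression on co-assayed BCL2-family reference pairs converts the normalised counts of each replicate to an apparent Kd. Each pool was mated in three replicate cultures.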

Each scFv is VL, a (GGGGS)3 linker, VH, as in the parent Ab-91, and differs from it in the CDRs of the heavy chain only.
VL: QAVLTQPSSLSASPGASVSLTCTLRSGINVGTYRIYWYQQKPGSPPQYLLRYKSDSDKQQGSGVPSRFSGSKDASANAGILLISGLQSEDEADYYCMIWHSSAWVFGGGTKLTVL
VH: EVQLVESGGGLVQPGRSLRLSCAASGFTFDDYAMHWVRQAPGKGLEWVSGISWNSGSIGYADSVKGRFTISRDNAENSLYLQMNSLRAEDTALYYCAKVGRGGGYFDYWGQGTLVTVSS

The parent's heavy chain CDRs are GFTFDDYAMH, GISWNSGSIGYADSVK, VGRGGGYFDY; each variant's own CDRs replace them letter for letter. Each Kd is an estimate from the mating assay, the geometric mean of the replicates in which the pair was seen; lower is stronger. "no signal" marks a missing value. The strain was present, yet no cells mated with the target were sequenced in any replicate, which points to weak or no binding. For reference, the parent read 72 nM as the reference entry and 7.5 nM as a member of this library. Nonspecific signal, from three strains lacking the peptide, appeared in 21% of pairings of library AAYL51, centred on 34 µM (5% of these signals below 1.8 µM); values are not corrected for it. Also given: how often the same scFv was detected with the empty control strains.

apparent Kd | detected | empty controls | CDR-H1 | CDR-H2 | CDR-H3
440 µM | 3/3 | 7/9 | GFTFDDYAMH | GCSWNSGSIWYPDSVK | VGRGGGYFDY
2.4 µM | 1/3 | 3/9 | GFTEDFYAMH | GISWNSGSIIYADSVK | VGRGGGYFDY
46 µM | 1/3 | 0/9 | GFEFDDYTMH | GISWNSGSIGYADSVK | VGRGGGYFIY
28 µM | 1/3 | 1/9 | GFTGDDYAMH | GISWNSGSIGYADHVK | HGRGGGYFDY
34 µM | 1/3 | 2/9 | GFTFDDWAMH | GIPFNSGSIGYADSVK | VGRGGGYFDY
260 µM | 2/3 | 4/9 | PFTFDDYAMH | GISWNSGSIGLADSVK | VGRGGGYFDY
98 µM | 3/3 | 7/9 | GFTFNDYAMH | GISWNSGSIGYADSHK | VGRGGGMFDY
120 µM | 2/3 | 2/9 | GFTFDDYAMP | GISWNSGSIGYSDSVK | VGRGIGYFDY
120 µM | 2/3 | 4/9 | GFTFDDYAMV | GISWNAGSIGYADSVK | VGRGGGLFDY
18 nM | 3/3 | 3/9 | GFTFDDYAMH | GISWNSGSDGYASSVK | VGRGGPYFDY
24 µM | 1/3 | 4/9 | GFTFDDYAMH | GISWNSGSIGQAPSVK | VGRGGGDFDY
no signal | 0/3 | 2/9 | GFTFDDYAME | GISWISGSIGYADSVK | VGRGGGRFDY
15 µM | 2/3 | 6/9 | GFTFDDYAMH | GISWNSGSSGYADAVK | VGRGGGYFDY
no signal | 0/3 | 1/9 | GFTFDDYAMH | GISWNSGSIGYADSVK | VGRGAGYRDY
13 nM | 3/3 | 3/9 | GFTFGAYAMH | GISWNSHSIGYADSVK | VGRGGGYFDY
no signal | 0/3 | 0/9 | GFTFDDYVMH | GISWNSGSIGYADSVL | VGRGGEYFDY
20 µM | 1/3 | 0/9 | WFTFDDYAMH | PISWNSGSIGYADSVK | VGRGGGYSDY
64 µM | 3/3 | 7/9 | GFTFDDPADH | GISWNMGSIGYADSVK | VGRGGGYFDY
21 µM | 1/3 | 3/9 | GFEEDDYAMH | SISWNSGSIGYADSVK | VGRGGGYFDY
290 µM | 1/3 | 1/9 | GFTFHDYAMW | GISWNSGSIGYADSVK | VGRGGGYFDY
54 µM | 3/3 | 5/9 | GITFDDYAMH | GISWNSGSIGYADSVK | VGRGEGAFDY
180 µM | 2/3 | 6/9 | GFTFDDYAMH | PISWNSGSIGYADSVK | VLRGGGYFDY
45 µM | 1/3 | 1/9 | GFTWDDYAMH | GISWNSGSIGYADSVT | VGRGGGYFYY
no signal | 0/3 | 3/9 | GFTFDDYAMH | GISWNSGSIGEADSVK | LGRGGGYFDY
19 nM | 3/3 | 3/9 | GFTFDDYAMH | GISWNSGSIGYADSVK | VGRGGGWFDQ
no signal | 0/3 | 0/9 | GFTFDDYAMH | GISWNSFSIGYADSWK | VGRGPGYFDY
no signal | 0/3 | 2/9 | GGTFDDYAMH | GSSWNSGSIGYADSVK | VGTGGGYFDY
98 µM | 2/3 | 5/9 | GFTPDDYAMH | GISWNSGSIGYANSVK | VGRGGGDFDY
1.0 µM | 1/3 | 0/9 | GITFDDYAMH | GISWNSGIIGYADSVT | VGRGGGYFDY
no signal | 0/3 | 0/9 | GFTFDDYAMH | GISINSGSDGYADSVK | VGRGGGYFEY
76 µM | 1/3 | 0/9 | GATFDDYAMH | GISWNSGSIDYQDSVK | VGRGGGYFDY
53 µM | 3/3 | 5/9 | GFTFDDYAMH | GISWLSGSIGYADWVK | VGRGGGYEDY
47 nM | 3/3 | 1/9 | GFTFDDYAIH | GISWNSGSIGYADSVK | VGRGGGGFDC
no signal | 0/3 | 1/9 | GFTFDDYAMH | GRSWNSGSIKYADSVK | VGRTGGYFDY
38 nM | 3/3 | 2/9 | GFTFDDYAMH | GISVNSGSIGYADSVK | VVKGGGYFDY
580 µM | 3/3 | 6/9 | GFTFDDYAMH | GISWNGGFIYYADSVK | VGRGGGYFDY
29 µM | 1/3 | 2/9 | GFTTDDYAMH | GISWNPGSIGYQDSVK | VGRGGGYFDY
4.7 µM | 3/3 | 2/9 | GFTFDDYAMH | GISWNSGSLGYADSAK | VGRGHGYFDY
no signal | 0/3 | 0/9 | GFTWDDYAMH | GISWNSGSIGYADSVK | VGRGGGYQMY
11 nM | 3/3 | 0/9 | DFTFDDYAMQ | GISWNSGSIGYADSVK | AGRGGGYFDY
no signal | 0/3 | 0/9 | GFTFDDYAMH | GISWNSGMIGYAQSVK | VGRGGGYFDY
71 µM | 1/3 | 3/9 | GFTFDDGAHH | GISWNSGSRGYADSVK | VGRGGGYFDY
no signal | 0/3 | 0/9 | GFTFDDYAMH | GISWNSGSIGYGDSIK | VGRFGGYFDY
18 µM | 1/3 | 1/9 | GFTFDDYAMH | GISWNSGSIGYATSVK | HGRGGGYFDY
1.0 µM | 3/3 | 5/9 | GFTFDDYAMH | GISWNSGSIGYADCVK | VGRGGGIFDY
no signal | 0/3 | 0/9 | GFTFDDYAMH | CISWNSGSFGYADSVK | VGRGGGYFDY
2.5 µM | 2/3 | 0/9 | GFTFDDYAMH | GITWNSGSIGYADWVK | VGRGGGYFDY
no signal | 0/3 | 0/9 | GFTFDDKAMH | HISENSGSIGYADSVK | VGRGGGYFDY
190 µM | 1/3 | 0/9 | GFTFDDYAIH | GIWWNSGSIGYADSVK | VGRWGGYFDY
no signal | 0/3 | 0/9 | GFTFDDYAMH | GISWNSGSIGYADMVK | VHWGGGYFDY
1.1 mM | 2/3 | 2/9 | GFTFDDYAMH | GIPWNSGSIGYADNVK | VGRGGGYFDS
37 µM | 2/3 | 0/9 | GFSFDDYAWH | GISWNTGSIGYADSVK | VGRGGGYFDY
17 µM | 1/3 | 1/9 | GFTDDDYAMH | GISWNSGSIGYADSVK | VQRGGGYIDY
9.3 µM | 1/3 | 0/9 | GFTFDDIAMH | GISWNSGSIDYADSVK | VGRGGGYFDY
no signal | 0/3 | 2/9 | GQTFLDYAMH | GISWNSGSLGYADSVK | VGRGGGYFDY
22 µM | 1/3 | 3/9 | GFTFDDYAPH | GISWNSGSIEYADSVK | VGRGGGYFEY
920 nM | 3/3 | 4/9 | GFTFGDYAMH | GISWNSGSIGYADKVK | VGRGGGYTDY
49 µM | 3/3 | 5/9 | GFTSDDYAMH | GIAWNSGSIGYADSVK | VGRGGGYFDH
120 µM | 1/3 | 0/9 | GFTFDDYAIH | GISYNSGSIGYADSVK | VGRGGGYFDY
29 µM | 1/3 | 0/9 | GFTFDDYAMH | GISWNSGSIGYADSVG | VGRGGGYHDY
no signal | 0/3 | 0/9 | FFTFDDYAMH | GIYWNSGSIGYADSVK | VGRGGGYFDY
10 µM | 2/3 | 1/9 | GFTFDDYDMH | GISWNSGSIGYADSVK | VGRGGGYFLY
no signal | 0/3 | 1/9 | GFTFDDYDMH | GISWNSGSIGYARSVK | VGRGGGSFDY
29 µM | 3/3 | 5/9 | GFTFDDYAMH | GISHNSGSIRYADSVK | VGRGNGYFDY
18 µM | 1/3 | 0/9 | GFTFDDYAMH | GVSWNSGSIGYADSVK | VGRGRGYFDY
5.4 µM | 3/3 | 6/9 | GFTFDDYAMH | GIMWNSGSIGYADSVK | VNRGGGYFDY
no signal | 0/3 | 0/9 | IFMFDDYAMH | GISWNSGSQGYADSVK | VGRGGGYFDY
no signal | 0/3 | 0/9 | GFTFDDYAMH | GISWNSGSIGYASSVK | VGRGGGYSDY
no signal | 0/3 | 2/9 | GFTFDDYAMH | GISWNIGSNGYADSFK | VGRGGGYFDY
680 nM | 1/3 | 0/9 | GFTFDNYAMH | GISVNSGSIGYADIVK | VGRGGGYFDY
4.2 µM | 1/3 | 0/9 | GFTFDDYAMH | GISWNSGSIGYAHSWK | VGRGGGYFDF
290 µM | 1/3 | 0/9 | KFTFDDYAMH | GISWISGSIGYADSVK | VGRGGGYFDY
120 nM | 3/3 | 0/9 | GFTFDDYAMH | GISANSGSIGYADSCK | VGRGGGYFYY

Picked from the list: the 4 lowest averages where every replicate gave a value.

{"CDR-H1": "DFTFDDYAMQ", "CDR-H2": "GISWNSGSIGYADSVK", "CDR-H3": "AGRGGGYFDY", "apparent Kd": "11 nM", "detected": "3/3", "empty controls": "0/9"}
{"CDR-H1": "GFTFGAYAMH", "CDR-H2": "GISWNSHSIGYADSVK", "CDR-H3": "VGRGGGYFDY", "apparent Kd": "13 nM", "detected": "3/3", "empty controls": "3/9"}
{"CDR-H1": "GFTFDDYAMH", "CDR-H2": "GISWNSGSDGYASSVK", "CDR-H3": "VGRGGPYFDY", "apparent Kd": "18 nM", "detected": "3/3", "empty controls": "3/9"}
{"CDR-H1": "GFTFDDYAMH", "CDR-H2": "GISWNSGSIGYADSVK", "CDR-H3": "VGRGGGWFDQ", "apparent Kd": "19 nM", "detected": "3/3", "empty controls": "3/9"}

Source: Engelhart et al. 2022 (doi:10.1038/s41597-022-01779-4), MIT Lincoln Laboratory and A-Alpha Bio; data file from the FLAb repository.